The values that follow come from patent publication US20060188964A1, “Processing for producing and crystallizing G-protein coupled receptors” (priority 2004, published 2006).

This assay has as its target T1, MBP-serotonin receptor fusion protein (MBP-5HT2c) (Rattus norvegicus, UniProt P08909).
T1 construct: possibly thioredoxin (TRX) fused at residue 402 and/or a C-terminal deca-histidine tag
T1 sequence (P08909 57-402 limits assumed): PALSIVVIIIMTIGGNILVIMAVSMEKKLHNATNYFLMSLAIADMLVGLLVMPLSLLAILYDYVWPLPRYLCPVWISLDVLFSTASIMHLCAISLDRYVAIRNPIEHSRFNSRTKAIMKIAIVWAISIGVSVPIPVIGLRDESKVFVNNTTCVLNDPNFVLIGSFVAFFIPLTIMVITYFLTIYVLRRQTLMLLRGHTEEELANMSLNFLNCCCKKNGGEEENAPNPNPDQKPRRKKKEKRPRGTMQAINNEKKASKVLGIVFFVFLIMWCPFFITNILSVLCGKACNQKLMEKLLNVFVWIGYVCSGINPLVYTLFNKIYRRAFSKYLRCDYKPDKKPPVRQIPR
Kind of assay: Tritiated mesulergine saturation binding and Scatchard analysis on E. coli spheroplasts. To be noted: background with 10 μM serotonin, triplicate. The method, then: Once conditions were established for expression at a high level, the specific activity of the expressed protein was fully analyzed on an absolute scale, as for material from mammalian cells. In this case, experiments were carried out on spheroplasts (bacterial cells stripped of their outer membranes) using tritiated mesulergine (FIGS. 20A and 20B). FIGS. 20A and 20B correspond to data obtained from ligand binding to bacterial spheroplasts isolated from E. coli cells expressing the MBP-serotonin receptor fusion protein. […] The specific activity was calculated as the difference between the total activity and the activity assayed in the presence of 10 μM serotonin. Assays were performed in triplicate and what is shown is the average of these measurements.

Usually Kd stands for the concentration at which binding is half-saturated. Low readings indicate higher affinity, high ones lower affinity. `CN1C[C@@H](NS(=O)(=O)N(C)C)C[C@@H]2c3cccc4c3c(cn4C)C[C@H]21` [mesulergine]: the Kd is approximately 2.2 nM.
